This data set relates to human brain E4ORF1+ brain endothelial cell monolayers.

On to VEGF, for which the “permeability response to VEGF” value was “responsive”.
